pIC50: −log10 of the molar value. Read-outs that look alike come from different tables or passages of the source.
How the values were obtained:
ovine COX-1 = ovine COX-1 (Ovis aries, UniProt P05979); assay: IC50 determinations using purified enzymes (TLC assay), COX-1; assay type: biochemical
COX-2 = COX-2 (Homo sapiens, UniProt P35354); assay: IC50 determinations using purified enzymes (TLC assay), COX-2; assay type: biochemical; conditions: purified enzyme
[1] = read-out: IC50 COX-1, Table 1, assayed against purified enzymes

By UniProt entry, the sequences of proteins in these tests, tags left out. Residues count along the entry.
UniProt P05979, 25-600 limits assumed: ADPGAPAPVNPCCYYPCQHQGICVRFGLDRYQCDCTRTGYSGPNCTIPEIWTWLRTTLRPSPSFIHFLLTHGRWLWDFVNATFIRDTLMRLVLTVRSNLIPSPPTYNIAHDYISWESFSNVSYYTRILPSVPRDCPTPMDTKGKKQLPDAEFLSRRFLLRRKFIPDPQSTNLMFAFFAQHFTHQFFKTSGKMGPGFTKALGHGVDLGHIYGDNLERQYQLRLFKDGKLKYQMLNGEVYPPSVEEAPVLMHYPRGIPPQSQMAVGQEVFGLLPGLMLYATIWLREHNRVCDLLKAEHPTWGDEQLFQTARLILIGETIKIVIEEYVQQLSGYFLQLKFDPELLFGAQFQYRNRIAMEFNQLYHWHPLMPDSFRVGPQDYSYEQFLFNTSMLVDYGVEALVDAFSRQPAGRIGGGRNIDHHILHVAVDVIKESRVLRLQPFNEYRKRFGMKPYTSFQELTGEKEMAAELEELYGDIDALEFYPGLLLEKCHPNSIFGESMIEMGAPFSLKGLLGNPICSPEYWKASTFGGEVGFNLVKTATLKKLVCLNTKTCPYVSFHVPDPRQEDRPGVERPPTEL
UniProt P35354, 18-604 limits assumed: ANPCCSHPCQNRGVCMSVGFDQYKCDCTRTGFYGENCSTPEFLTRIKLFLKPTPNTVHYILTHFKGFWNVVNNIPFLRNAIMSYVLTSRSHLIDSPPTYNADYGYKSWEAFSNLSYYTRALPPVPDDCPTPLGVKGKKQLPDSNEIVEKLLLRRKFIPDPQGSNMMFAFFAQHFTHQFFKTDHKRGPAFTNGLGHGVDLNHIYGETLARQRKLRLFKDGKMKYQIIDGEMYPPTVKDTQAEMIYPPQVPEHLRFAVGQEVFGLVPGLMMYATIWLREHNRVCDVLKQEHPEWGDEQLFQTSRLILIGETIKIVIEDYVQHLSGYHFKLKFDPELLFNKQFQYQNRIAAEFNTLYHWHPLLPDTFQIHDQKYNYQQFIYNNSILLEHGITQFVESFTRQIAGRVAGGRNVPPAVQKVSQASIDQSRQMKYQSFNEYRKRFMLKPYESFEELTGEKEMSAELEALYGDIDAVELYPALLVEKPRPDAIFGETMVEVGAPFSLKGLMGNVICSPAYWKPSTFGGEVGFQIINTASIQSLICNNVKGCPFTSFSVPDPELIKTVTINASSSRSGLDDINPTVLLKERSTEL

| Structure (SMILES) | pIC50 (ovine COX-1; read-out: IC50 for COX-1, purified enzyme) | COX-2 inhibitory activity (in words) (COX-2) | pIC50 (ovine COX-1; [1]) |
| --- | --- | --- | --- |
| COc1ccc2c(c1)c(CC(=O)NCCOCCOCCOCCOCCC(=O)O)c(C)n2C(=O)c1ccc(Cl)cc1 | 5.40 | non-selective COX inhibitor |  |
| COc1ccc2c(c1)c(CC(=O)NCCNC(=O)\C=C(C)/C=C/C=C(C)/C=C/C1=C(C)CCCC1(C)C)c(C)n2C(=O)c1ccc(Cl)cc1 |  | inhibited COX-2 in a highly selective fashion | < 5.40 |
| COc1ccc2c(c1)c(CC(=O)NCCCCNC(=O)CCC(=O)Nc1ccc(S(=O)(=O)Nc3nccs3)cc1)c(C)n2C(=O)c1ccc(Cl)cc1 |  |  | < 5.40 |
